Measured values taken from paper PMC12563520, “Asiatic Acid from Centella asiatica as a Potent EGFR Tyrosine Kinase Inhibitor with Anticancer Activity in NSCLC Cells Harboring Wild-Type and T790M-Mutated EGFR” (Biomolecules, 2025).

Assays:
[1] = system: p-ERK (Thr202/Tyr204) in A549 cells; test: Western blot of p-ERK, A549; format: cell-based, human; conditions: A549, 10 μM, 24 h, vs DMSO
Experimental: (§1) Cells were plated at 200,000 cells/well in a 6-well plate and allowed to adhere for 24 h. They were then treated with the tested compound at varying concentrations for 24 h. For A549 cells, treatment was performed in serum-free medium for 24 h, followed by stimulation with 100 ng/mL human EGF for 10 min prior to harvesting. Cells were harvested by trypsinization, lysed in RIPA buffer [50 mM Tris-HCl (pH 7.4), 150 mM NaCl, 1% NP-40, 1% Na-deoxycholate, and 0.1% SDS] with protease and phosphatase inhibitors, and incubated on ice for 30 min. Lysates were centrifuged, and protein concentration was determined using the Bradford assay. Equal amounts (30 μg) were separated by 10% SDS-PAGE and transferred to a […] membrane (Immobilon®-P, Merck Millipore, Burlington, MA, USA). The membrane was blocked with 5% skim milk in 1X TBST and incubated overnight at 4 °C with primary antibodies (Table S2) diluted 1:1000 in 1% skim milk-TBST or 1% BSA-TBST. […] Protein signals were detected using Luminata^TM Crescendo Western HRP Substrate (Merck Millipore) and imaged with an ImageQuant 800 system (GE Healthcare Bio-Sciences, Uppsala, Sweden). […] The detected signal was quantified using Image Studio Lite (version 5.2, LICORbio^TM, Lincoln, NE, USA).

[2] = system: p-Akt (Ser473) in A549 cells; test: Western blot of p-Akt, A549; format: cell-based, human; conditions: A549, 10 μM, 24 h, vs DMSO
Experimental: as §1

C#Cc1cccc(Nc2ncnc3cc(OCCOC)c(OCCOC)cc23)c1 [Erlotinib, reference compound]
p-ERK expression (fold), Mean [1]: 0.287 fold | p-ERK expression (fold), Mean ([1]; listed as erlotinib): significantly (p < 0.0001) reduced | p-Akt expression (fold), Mean [2]: 0.360 fold | p-Akt expression (fold), Mean ([2]; listed as erlotinib): significantly (p < 0.0001) reduced
